Ab-91 heavy chain CDR variants: yeast mating affinities

Values reported by Engelhart et al. 2022, doi:10.1038/s41597-022-01779-4 (FLAb copy).

Target: peptide PDVDLGDISGINAS, taken from heptad repeat 2 (HR2) of SARS-CoV-2 spike.

The variants keep the light chain, the linker and the frameworks of Ab-91 (scFv order VL, a (GGGGS)3 linker, VH).
VL: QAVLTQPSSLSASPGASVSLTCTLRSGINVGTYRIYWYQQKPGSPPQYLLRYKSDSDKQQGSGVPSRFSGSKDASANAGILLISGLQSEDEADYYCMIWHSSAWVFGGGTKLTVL
VH: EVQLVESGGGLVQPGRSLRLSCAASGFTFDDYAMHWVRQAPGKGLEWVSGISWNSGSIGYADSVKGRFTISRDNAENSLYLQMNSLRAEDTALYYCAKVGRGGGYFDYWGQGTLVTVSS

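Library AAYL51 holds single substitutions and randomly drawn double and triple substitutions in the CDRs. The assay is AlphaSeq: two haploid yeast populations carry antibody and antigen on their surface. Pairs that bind mate more often; barcode pairs of the diploids are counted by sequencing. Read counts were normalised to the haploid input and turned into Kd by a linear fit to BCL2-family pairs of known affinity, for each replicate. There are three technical replicates.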

Substitutions are numbered in sequence along the VH above, starting at 1 (not Kabat). Scale: log10 of Kd in nM, estimated from mating counts; low values are strong binders. The mean shown is taken over the replicates in which the pair was detected. "n.d." marks a missing value. The strain was present, yet no cells mated with the target were sequenced in that replicate, which points to weak or no binding.

changes,log10 Kd (nM) by replicate,"mean, log10 nM",signal with controls
F27T D30A K65L,3.02 2.83 2.83,2.90,2/9 (4.67)
G50Q G56Y I58D,n.d. n.d. n.d.,n.d.,0/9
D31N Y32F R101L,1.96 1.91 2.26,2.04,2/9 (4.47)
I51Q G59F G100R,4.71 5.16 n.d.,4.94,3/9 (4.55)
H35M D62V G103P,n.d. 3.67 n.d.,3.67,1/9 (3.98)
K65D G104Q,0.63 0.85 0.15,0.55,3/9 (5.19)
M34R S55N,n.d. n.d. n.d.,n.d.,1/9 (4.09)
Y32P S57V G59S,n.d. n.d. n.d.,n.d.,0/9
I58D A61R,2.05 2.31 2.21,2.19,1/9 (4.21)
H35F V99Y G100C,n.d. n.d. n.d.,n.d.,0/9
Y32L H35N Y60N,3.74 n.d. n.d.,3.74,0/9
V99G G104K F106K,1.87 1.77 1.62,1.75,4/9 (5.00)
T28E I58K Y105W,n.d. n.d. n.d.,n.d.,1/9 (4.08)
T28N S55N V64L,n.d. n.d. n.d.,n.d.,1/9 (4.89)
F27A T28F G50K,n.d. n.d. n.d.,n.d.,2/9 (4.19)
I51V S57F K65I,4.08 4.46 5.32,4.62,8/9 (4.77)
F27Y D107V,3.50 n.d. n.d.,3.50,2/9 (4.02)
Y32P I58G K65S,3.91 3.88 n.d.,3.89,0/9
F29M A61N D107E,4.40 5.76 4.59,4.92,4/9 (5.45)
W53A Y60T,2.14 1.93 1.07,1.71,0/9
T28K D30M R101A,1.10 1.11 0.34,0.85,0/9
G59D Y105N,6.55 4.46 n.d.,5.50,4/9 (4.90)
T28V A33S W53D,n.d. 3.34 n.d.,3.34,0/9
G103A Y105M,4.37 4.31 n.d.,4.34,4/9 (4.25)
H35F I58H Y108K,n.d. n.d. n.d.,n.d.,1/9 (4.69)
W53K G56D R101C,n.d. n.d. n.d.,n.d.,0/9
K65G G100T G103L,n.d. 5.00 5.13,5.07,3/9 (5.13)
D31W G50K S63Y,n.d. n.d. n.d.,n.d.,3/9 (4.34)
G50H D107P,n.d. n.d. n.d.,n.d.,1/9 (3.58)
G26P S52R G103K,4.30 n.d. n.d.,4.30,0/9
H35G G56E V64P,3.03 n.d. n.d.,3.03,0/9
F27W,n.d. 3.74 n.d.,3.74,1/9 (5.13)
D30K H35E G100N,n.d. n.d. n.d.,n.d.,1/9 (4.22)

The last 4 entries again:

changes	log10 Kd (nM) by replicate	mean, log10 nM	signal with controls
G26P S52R G103K	4.30 n.d. n.d.	4.30	0/9
H35G G56E V64P	3.03 n.d. n.d.	3.03	0/9
F27W	n.d. 3.74 n.d.	3.74	1/9 (5.13)
D30K H35E G100N	n.d. n.d. n.d.	n.d.	1/9 (4.22)

For reference, the parent read 1.86 as the reference entry and 0.88 as a member of this library. Background: pairings of library AAYL51 with three empty control strains gave a value in 21% of cases (median 4.54, 5th percentile 3.26). Values in that range, when seen in few replicates, are hard to tell from nonspecific mating. The control count says in how many pairings with the empty strains this scFv gave a signal, with their mean in brackets.